Our source for the IC50 values is ChEMBL document CHEMBL1122178, “N-Methylnalorphine: definition of N-allyl conformation for antagonism at the opiate receptor” (J Med Chem, 1982).

Protein sequences, listed by entry. Tags and fused reporters are not part of them. Lines headed by an entry give the natural chain unless they say otherwise; changes in a name come on top.
UniProt P42866: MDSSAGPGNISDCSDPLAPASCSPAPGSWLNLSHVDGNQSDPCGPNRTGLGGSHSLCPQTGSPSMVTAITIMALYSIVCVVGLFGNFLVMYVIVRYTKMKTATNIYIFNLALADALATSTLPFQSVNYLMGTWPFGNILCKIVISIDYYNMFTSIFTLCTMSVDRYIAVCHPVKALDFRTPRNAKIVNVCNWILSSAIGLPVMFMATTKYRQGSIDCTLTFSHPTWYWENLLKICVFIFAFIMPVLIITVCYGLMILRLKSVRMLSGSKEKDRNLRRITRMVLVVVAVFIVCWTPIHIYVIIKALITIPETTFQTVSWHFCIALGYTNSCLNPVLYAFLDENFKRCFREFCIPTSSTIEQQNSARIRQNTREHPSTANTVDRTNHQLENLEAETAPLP
UniProt P32300: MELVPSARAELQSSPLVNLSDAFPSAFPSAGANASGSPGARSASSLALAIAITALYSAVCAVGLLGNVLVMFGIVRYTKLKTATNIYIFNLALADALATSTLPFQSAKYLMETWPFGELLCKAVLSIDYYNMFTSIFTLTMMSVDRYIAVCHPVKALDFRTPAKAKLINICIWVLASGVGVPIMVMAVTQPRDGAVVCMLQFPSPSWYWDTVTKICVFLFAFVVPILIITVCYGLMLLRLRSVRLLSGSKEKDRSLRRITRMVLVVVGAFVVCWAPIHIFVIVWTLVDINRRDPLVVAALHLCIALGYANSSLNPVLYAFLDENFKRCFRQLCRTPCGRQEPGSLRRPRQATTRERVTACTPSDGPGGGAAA
UniProt P33534: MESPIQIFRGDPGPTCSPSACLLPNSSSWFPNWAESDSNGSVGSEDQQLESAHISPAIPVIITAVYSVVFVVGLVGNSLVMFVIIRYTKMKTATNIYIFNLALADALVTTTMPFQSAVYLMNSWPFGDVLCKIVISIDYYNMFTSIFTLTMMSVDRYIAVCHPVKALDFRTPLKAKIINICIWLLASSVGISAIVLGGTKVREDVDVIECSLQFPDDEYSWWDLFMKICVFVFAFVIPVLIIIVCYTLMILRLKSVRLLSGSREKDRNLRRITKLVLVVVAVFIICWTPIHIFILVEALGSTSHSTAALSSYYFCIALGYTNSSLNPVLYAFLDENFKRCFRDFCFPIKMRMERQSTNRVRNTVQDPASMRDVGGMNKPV

The target of test [1] is T1, Opioid receptor (Mus musculus, UniProt P42866+P32300+P33534). The experiment in a line: Concentration required to inhibit the stereospecific [3H]diprenorphine binding Opioid receptors in the absence of sodium(Na+) was determined in mouse isolated vas deferens. The format is protein assay.
In test [2] the target is T1, Opioid receptor. Briefly: Concentration required to inhibit the stereospecific [3H]diprenorphine binding Opioid receptors in the presence of sodium(Na+) was determined in mouse isolated vas deferens. The test is classed as protein assay.

On to `C=CCN1CC[C@]23c4c5ccc(O)c4O[C@H]2[C@@H](O)C=C[C@H]3[C@H]1C5` [NALORPHINE], for which the IC50 on Opioid receptor [1] amounted to 0.059 µM; on Opioid receptor [2], 0.16 µM.
